System: monoamine transporter mRNA (VMAT2, VMAT1, DAT, NET, SERT)
Assay: RT-qPCR of endogenous monoamine transporters mRNA in BE(2)-M17 cells
Assay type: cell-based, human
Settings: 10 μM, 18 h

Structure (SMILES): CN1CCN2c3ccccc3Cc3ccccc3C2C1 (stereo not shown) [MIA, Mianserin]
- Monoamine transporter mRNA (including VMAT2): no upregulation in any monoamine transporter mRNA

— publication PMC11399425, “Tricyclic and tetracyclic antidepressants upregulate VMAT2 activity and rescue disease-causing VMAT2 variants” (Neuropsychopharmacology, 2024)
